Amino acid sequences for entries named in this document (tags omitted).
UniProt O00763, whole entry: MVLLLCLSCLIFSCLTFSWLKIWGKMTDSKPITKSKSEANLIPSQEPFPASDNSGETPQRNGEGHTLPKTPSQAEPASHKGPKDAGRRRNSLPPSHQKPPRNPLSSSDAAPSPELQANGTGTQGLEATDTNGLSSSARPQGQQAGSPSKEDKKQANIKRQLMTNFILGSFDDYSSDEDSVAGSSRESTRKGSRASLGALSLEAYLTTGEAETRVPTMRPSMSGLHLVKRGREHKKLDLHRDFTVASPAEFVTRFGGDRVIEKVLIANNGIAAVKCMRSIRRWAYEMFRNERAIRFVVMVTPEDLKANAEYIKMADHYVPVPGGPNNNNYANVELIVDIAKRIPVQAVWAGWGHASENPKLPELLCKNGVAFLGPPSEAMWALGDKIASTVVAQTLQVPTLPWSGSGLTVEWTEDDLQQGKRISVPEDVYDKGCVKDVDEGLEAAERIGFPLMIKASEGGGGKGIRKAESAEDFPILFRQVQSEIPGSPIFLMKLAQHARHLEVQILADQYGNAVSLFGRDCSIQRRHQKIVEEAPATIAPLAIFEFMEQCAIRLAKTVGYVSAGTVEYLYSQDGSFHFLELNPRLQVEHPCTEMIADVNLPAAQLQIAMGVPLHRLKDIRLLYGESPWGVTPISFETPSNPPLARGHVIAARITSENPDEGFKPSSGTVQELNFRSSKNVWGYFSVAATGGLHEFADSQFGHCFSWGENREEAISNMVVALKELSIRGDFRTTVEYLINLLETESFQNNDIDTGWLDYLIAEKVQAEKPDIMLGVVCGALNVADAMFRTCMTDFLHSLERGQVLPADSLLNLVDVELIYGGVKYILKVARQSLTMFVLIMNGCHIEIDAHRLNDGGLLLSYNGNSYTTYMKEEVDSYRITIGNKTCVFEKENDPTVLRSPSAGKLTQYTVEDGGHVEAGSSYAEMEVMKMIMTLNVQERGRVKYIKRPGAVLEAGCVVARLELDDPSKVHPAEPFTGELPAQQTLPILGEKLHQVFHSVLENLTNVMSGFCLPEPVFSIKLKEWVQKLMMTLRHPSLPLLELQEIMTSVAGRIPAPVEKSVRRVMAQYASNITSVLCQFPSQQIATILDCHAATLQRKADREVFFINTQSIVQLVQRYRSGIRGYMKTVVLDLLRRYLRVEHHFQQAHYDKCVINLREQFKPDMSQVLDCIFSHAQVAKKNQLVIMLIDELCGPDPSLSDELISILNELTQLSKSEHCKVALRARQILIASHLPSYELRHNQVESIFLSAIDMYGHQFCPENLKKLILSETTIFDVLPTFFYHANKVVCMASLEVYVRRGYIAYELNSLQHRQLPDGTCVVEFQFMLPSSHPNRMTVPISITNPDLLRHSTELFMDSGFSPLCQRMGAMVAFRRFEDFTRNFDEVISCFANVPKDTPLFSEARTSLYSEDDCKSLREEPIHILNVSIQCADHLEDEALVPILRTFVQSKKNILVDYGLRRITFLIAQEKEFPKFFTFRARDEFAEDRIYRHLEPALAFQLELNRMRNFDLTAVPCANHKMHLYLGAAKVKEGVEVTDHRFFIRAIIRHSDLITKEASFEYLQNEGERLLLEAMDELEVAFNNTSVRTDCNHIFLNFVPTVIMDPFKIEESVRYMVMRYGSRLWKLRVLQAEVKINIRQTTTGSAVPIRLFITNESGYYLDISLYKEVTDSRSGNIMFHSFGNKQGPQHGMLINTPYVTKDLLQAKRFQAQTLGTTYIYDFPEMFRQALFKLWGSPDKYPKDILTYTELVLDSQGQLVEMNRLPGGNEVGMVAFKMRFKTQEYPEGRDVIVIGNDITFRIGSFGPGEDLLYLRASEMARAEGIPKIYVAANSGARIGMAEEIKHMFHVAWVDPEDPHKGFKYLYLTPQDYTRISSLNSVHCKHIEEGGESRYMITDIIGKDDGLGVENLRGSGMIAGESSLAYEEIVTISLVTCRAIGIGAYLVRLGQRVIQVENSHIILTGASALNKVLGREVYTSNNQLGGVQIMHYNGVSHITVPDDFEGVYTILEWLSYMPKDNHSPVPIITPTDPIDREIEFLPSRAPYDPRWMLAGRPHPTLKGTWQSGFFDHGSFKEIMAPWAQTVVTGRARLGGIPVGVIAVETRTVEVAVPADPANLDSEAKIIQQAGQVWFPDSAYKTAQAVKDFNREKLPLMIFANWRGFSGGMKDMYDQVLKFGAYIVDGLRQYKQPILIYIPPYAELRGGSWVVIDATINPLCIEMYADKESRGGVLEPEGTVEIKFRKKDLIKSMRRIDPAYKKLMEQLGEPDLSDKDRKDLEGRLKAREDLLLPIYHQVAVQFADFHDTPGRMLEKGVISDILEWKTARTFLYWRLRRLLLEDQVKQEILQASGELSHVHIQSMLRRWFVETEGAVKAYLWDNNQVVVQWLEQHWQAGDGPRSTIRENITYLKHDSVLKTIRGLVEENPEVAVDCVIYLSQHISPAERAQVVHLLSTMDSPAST

In publication PMC4281100 (Journal of Medicinal Chemistry, 2014):

Legend:
human ACC1 = human ACC1 (Homo sapiens, UniProt Q13085); assay: Transcreener ACC inhibition assay, recombinant human ACC1; assay type: biochemical; settings: lipophilic efficiency
human ACC2 = human ACC2 (Homo sapiens, UniProt O00763); assay: Transcreener ACC inhibition assay, recombinant human ACC2; assay type: biochemical; settings: lipophilic efficiency

Cc1nc2ccc(C(=O)N3CCC4(CC3)CC(=O)c3c(cnn3C(C)C)C4)cc2[nH]1 [Compound 9, 1-Isopropyl-1′-(2-methyl-1H-benzo[d]imidazole-6-carbonyl)-1,4-dihydrospiro[indazole-5,4′-piperidin]-7(6H)-one] was tested, and the “ACC1 LipE” value (human ACC1) was 5.1 and the “ACC2 LipE” value (human ACC2) was 5.5.
